Our source for the IC50 values is ChEMBL document CHEMBL4808210, “Mapping Chromone-3-Phenylcarboxamide Pharmacophore: Quid Est Veritas?” (J Med Chem, 2021).

The chains behind the UniProt entries cited, without tags or fusion partners.
UniProt P27338, whole entry: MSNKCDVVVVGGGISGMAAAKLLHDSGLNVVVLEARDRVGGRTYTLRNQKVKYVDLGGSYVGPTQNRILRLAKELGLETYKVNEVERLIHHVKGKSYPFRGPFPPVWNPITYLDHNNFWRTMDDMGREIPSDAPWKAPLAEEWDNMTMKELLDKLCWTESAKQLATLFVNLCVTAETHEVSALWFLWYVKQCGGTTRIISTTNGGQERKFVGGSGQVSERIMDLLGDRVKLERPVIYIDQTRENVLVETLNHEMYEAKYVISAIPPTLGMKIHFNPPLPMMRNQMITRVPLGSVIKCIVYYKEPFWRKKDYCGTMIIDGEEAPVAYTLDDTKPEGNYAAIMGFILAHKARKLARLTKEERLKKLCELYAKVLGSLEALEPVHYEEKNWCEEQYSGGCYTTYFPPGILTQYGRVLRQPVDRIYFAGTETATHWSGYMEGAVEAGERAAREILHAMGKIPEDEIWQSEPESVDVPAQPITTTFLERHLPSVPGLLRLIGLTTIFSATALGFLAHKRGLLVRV

pIC50: −log10 of the molar value.

The experiment addresses Amine oxidase [flavin-containing] B (Homo sapiens, UniProt P27338). Kind of experiment: Inhibition of recombinant human MAO-B expressed in baculovirus infected BTI-TN- 5B1-4 insect cells using kynuramine as substrate preincubated for 10 mins in presence of substrate followed by enzyme addition and measured every minute for 30 mins by spectrophotometry analysis. It is filed as cell-based.

For the compound `Cc1ccc(NC(=O)c2cc3ccccc3oc2=O)cc1C`, the pIC50 was 7.73.
